Bioassay records from PubChem.
ALDH1A1 block – inhibitors of human aldehyde dehydrogenase 1A1; P00352; Purified ALDH1A1, NADH fluorescence, propionaldehyde substrate; Potency, µM (titrated, usually from 75.3 µM), inactives show at the highest dose activity, negative = inhibition, hits mostly inhibitors; 220,000 compounds, 7.3% hits; active = well fitted inhibition curve with a large enough effect, not every such curve was filed as active; inconclusive = small, poorly fitted or top-dose-only effect, or another doubt; inactive = no such curve, though single readings can be large or run the other way;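 note: potency is the fitted concentration of half-maximal effect; plate controls were no enzyme wells and a reference inhibitor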
JMJD2E inh – inhibitors of human JMJD2E histone demethylase | B2RXH2 | 230,000 compounds, 1.6% hits | AID 2147 | Potency, µM (series often up to 57.1 µM), for inactives: top-dose activity change, negative = inhibition, hits mostly inhibitors | JMJD2E catalytic domain, FDH-coupled NADH fluorescence (FDH is formaldehyde dehydrogenase);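 note: potency is the fitted concentration of half-maximal effect; 0% = wells with enzyme and -100% = buffer wells without enzyme; nearly all actives have a fitted effect of over 50% in size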
Sfp inh – blocks B. subtilis Sfp PPTase activity; 310,000 tested, 3.5% active; AID 1490; Biochemical Sfp PPTase activity, qHTS; Potency, µM, for the others: max response, negative = inhibition, usual class: inhibitors; active = well fitted inhibition curve with a large enough effect; inconclusive = small, poorly fitted or top-dose-only effect, or another doubt; inactive = no such curve, though single readings can be large or run the other way;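 also: the enzyme is Sfp with the accession as filed and its product quenches rhodamine fluorescence; potency is read from the fitted curve at half-maximal effect; 0% = enzyme reaction without inhibitor and -100% = no enzyme wells; top concentration of the series not given in the record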
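Compounds were incubated with enzyme (final 15 nM) for 15 min at room temperature before substrate addition started the reaction. Fluorescence at 525 nm excitation, 598 nm emission was recorded immediately and after 30 minutes.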
miR-21 reporter – raises the signal of a miR-21 reporter | HeLa miR-21 FLuc reporter, luciferase, 48 h | Potency, µM (highest dose often 38.3 µM), for inactives: at the highest dose reporter change, positive = more light | 340,000 tested, under 10 active | AID 2288; active = well fitted rising curve with a large enough effect; inconclusive = small, poorly fitted or top-dose-only effect; inactive = no such curve, though single readings can be large or run the other way;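 also: % of control where 0% means no effect; miR-21 action dims this reporter so a rising signal means less miR-21 action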
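Using DMEM plus 10% FBS, HeLa miR-21-FLuc cells are incubated with test compounds (final up to about 40uM) for 48 hours; firefly luciferase signal is then imaged following reagent-mediated lysis.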
Lamin A splicing – changes lamin A minigene splicing in HeLa cells; Potency, µM (highest dose often 46.1 µM), inactives show top-dose ratio change, negative = inhibition, most hits filed as inhibitors; 200,000 compounds, 0.01% hits; HeLa LMNA splicing GFP/RFP minigene ratio, 48 h; active = well fitted inhibition curve with a large enough effect in the signal ratio, with a control signal flat, not every such curve was filed as active; inconclusive = small, poorly fitted or top-dose-only effect, or effect the other way, or a change in a side signal; the % refers to the signal ratio; note: potency is the fitted concentration of half-maximal effect; % is set by controls: 0 for no effect and ±100 for the full control effect
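Read-out is the ratio of GFP to DsRed2 object intensity, acquired by 488 nm laser-scanning cytometry on HeLa lamin A-EGFP minigene reporter cells. Compound incubation 48 hrs at 37 °C in Opti-MEM with 2% FBS; DMSO 0.5% final.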
G9a block – inhibitors of human histone lysine methyltransferase G9a. Q96KQ7. G9a H3K9 monomethylation, AlphaScreen, 2 h. Potency, µM (top dose mostly 102 µM), inactives show at the highest dose activity, negative = inhibition, actives largely listed as inhibitors. 350,000 compounds, 8.8% hits. AID 504332; note: potency is the fitted concentration of half-maximal effect; % is set by controls: 0 for no effect and ±100 for the full control effect; nearly all actives have a fitted effect of over 75% in size
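G9a (20 nM) preincubated 15 min RT with compounds, then 500 nM biotinylated H3K9 peptide and 20 uM SAM added; 2 h RT reaction. Monomethyl-H3K9 product detected by AlphaScreen with anti-H3K9me1 antibody, streptavidin donor and anti-rabbit IgG acceptor beads.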
The depositor's hits bear a star; ! = not active in a repeat; [ ] = dose if it differs, or a comment. Hits are enriched below; roughly 13% of the tested compounds scored in any of these assays. Unless noted, calls come from the whole dose curve; as a rule, active = well fitted curve in the direction sought with a large enough effect; inconclusive = small, poorly fitted or top-dose-only effect, or another doubt; inactive = no such curve, though single readings can be large; an effect the other way counts as inactive or inconclusive.

For CC(C)c1ccc(N=Cc2c(O)n(C3CC3)c(=S)[nH]c2=O)cc1 the results were JMJD2E inh -5%, Sfp inh 4%, miR-21 reporter -2% and G9a block inconclusive.
Screening O=C1NC(=O)N(c2ccccc2)C(=O)/C1=C/C=C/c1ccco1 returned JMJD2E inh -12%, Sfp inh 32µM*, miR-21 reporter 20% and G9a block 35µM*.
Cc1cccc(N2C(=O)NC(=O)/C(=C/c3ccc([N+](=O)[O-])o3)C2=O)c1 was read as ALDH1A1 block -4%, JMJD2E inh -2%, Sfp inh 13µM*, miR-21 reporter -3%, Lamin A splicing 4% and G9a block inconclusive.
Screening Cc1ccc(N2C(=O)NC(=O)/C(=C\C=C\c3ccco3)C2=O)cc1C returned ALDH1A1 block inconclusive, JMJD2E inh -11%, Sfp inh -71%, miR-21 reporter inconclusive, Lamin A splicing inconclusive and G9a block 10µM*.
For Cc1cccc(N2C(=O)CC(=O)NC2=O)c1 the results were ALDH1A1 block 7%, JMJD2E inh 6%, Sfp inh -13%, miR-21 reporter -1%, Lamin A splicing 3% and G9a block inconclusive.
For Cc1cccc(N2C(=O)NC(=O)/C(=C\C=C\c3ccco3)C2=O)c1 the results were JMJD2E inh -12%, Sfp inh 45µM*, miR-21 reporter 12% and G9a block 4µM*.
Oc1cc(Cl)cc(Cl)c1Cl was read as ALDH1A1 block inconclusive and G9a block 8%[0.501 µM].
CN1C(=O)/C(=C/C=C/c2ccco2)C(=O)NC1=S was read as JMJD2E inh inconclusive, Sfp inh 13µM*, miR-21 reporter -2% and G9a block 2.8µM*.
`Cc1ccc(N2C(=O)NC(=O)/C(=C\C=C\c3ccco3)C2=O)cc1` gave JMJD2E inh -19%, Sfp inh inconclusive, miR-21 reporter inconclusive and G9a block 35µM*.
CN(C)c1ccc(/C=C/C=C2/C(=O)NC(=O)N(c3ccccc3)C2=O)cc1 was read as ALDH1A1 block inconclusive, JMJD2E inh -9%, Sfp inh 45µM*, miR-21 reporter -5%, Lamin A splicing inconclusive and G9a block 16µM*.

The final 2 records of the section above come first, to join the parts:
`Cc1ccc(N2C(=O)NC(=O)/C(=C\C=C\c3ccco3)C2=O)cc1` gave JMJD2E inh -19%, Sfp inh inconclusive, miR-21 reporter inconclusive and G9a block 35µM*.
CN(C)c1ccc(/C=C/C=C2/C(=O)NC(=O)N(c3ccccc3)C2=O)cc1 was read as ALDH1A1 block inconclusive, JMJD2E inh -9%, Sfp inh 45µM*, miR-21 reporter -5%, Lamin A splicing inconclusive and G9a block 16µM*.
`[Cl][Pd][Cl].[S-]C1=C2N=CN[C-]2[NH+]=C[N-]1.[S-]c1ncnc2[nH]cnc12` gave ALDH1A1 block -11%[13.5 µM].
CCC1C(=O)OC[C@H]1Cc1cncn1C (stereo partly specified) was read as ALDH1A1 block 4%, JMJD2E inh -2%, Sfp inh -10% and G9a block inconclusive.
`C=C(C)c1cc2cc(C(C)=O)c(O)cc2o1` gave ALDH1A1 block 11%, JMJD2E inh 15%, Sfp inh -18% and Lamin A splicing inconclusive.
For O=c1[nH]c(=O)n([C@H]2C[C@@H](O)[C@@H](CO)O2)cc1C=CBr the results were G9a block 40%[59 µM].
For C=CCN1CCC2(C)c3cc(O)ccc3C[C@H]1[C@H]2C the results were ALDH1A1 block 7%, JMJD2E inh 6% and Sfp inh 8%.
`C=CCN1CC[C@@]2(C)c3cc(O)ccc3CC1[C@@H]2C` gave ALDH1A1 block -5%, JMJD2E inh -7%, Sfp inh -2%, miR-21 reporter 0%, Lamin A splicing -12% and G9a block 45µM*!.
For COc1ccc(OC)c([C@H](O)[C@H](C)N)c1 the results were ALDH1A1 block 9%[20.9 µM], JMJD2E inh 0%[25.5 µM], Sfp inh 29%, Lamin A splicing -13% and G9a block 19%[21.5 µM].
For COc1cc(/C=C/[N+](=O)[O-])ccc1OC(=O)c1cccnc1 the results were Sfp inh -94%, miR-21 reporter 11% and G9a block 3.5µM*.
For C=C1C(=O)O[C@@H]2C[C@@H](C)[C@@H]3C=CC(=O)[C@@]3(C)[C@@H](OC(=O)CC(=O)O[C@H]3[C@@H]4C(=C)C(=O)O[C@@H]4C[C@@H](C)[C@@H]4C=CC(=O)[C@]43C)[C@H]12 the results were JMJD2E inh -9%, Sfp inh 22µM*, miR-21 reporter inconclusive and G9a block inconclusive.
`CCOC(=O)Cn1cc(C=C2C(=O)N(C)C(=O)N(C)C2=O)c2ccccc21` gave Sfp inh -12%, miR-21 reporter 3% and G9a block 1%.

Random excerpt: two records from the list
`C=C(C)c1cc2cc(C(C)=O)c(O)cc2o1` gave ALDH1A1 block 11%, JMJD2E inh 15%, Sfp inh -18% and Lamin A splicing inconclusive.
For COc1ccc(OC)c([C@H](O)[C@H](C)N)c1 the results were ALDH1A1 block 9%[20.9 µM], JMJD2E inh 0%[25.5 µM], Sfp inh 29%, Lamin A splicing -13% and G9a block 19%[21.5 µM].

(further entries)
Cc1ccc(S(=O)(=O)Oc2ccccc2C=C2C(=O)N(C)C(=O)N(C)C2=O)cc1 was read as Sfp inh 79µM* and miR-21 reporter -13%.
Screening CN1C(=O)C(=Cc2ccccc2OCc2ccc(Cl)cc2)C(=O)N(C)C1=O returned ALDH1A1 block 18µM*, JMJD2E inh 20µM*, Sfp inh 50µM*, miR-21 reporter -37%, Lamin A splicing -7% and G9a block -14%[59 µM].
CN1C(=O)C(=Cc2ccccc2Oc2ccc(Cl)cc2)C(=O)N(C)C1=O was read as ALDH1A1 block inconclusive, JMJD2E inh -5%, Sfp inh inconclusive, miR-21 reporter 0%, Lamin A splicing inconclusive and G9a block -22%[59 µM].
Screening O=[As]O[As]=O (stereo unspecified) returned Sfp inh 23%, Lamin A splicing inconclusive and G9a block 26%[59 µM].
`CC(=O)CC(c1ccccc1)c1c(O)c2cccc(O)c2oc1=O` (stereo unspecified) gave Sfp inh -8%.
Screening CN1C(=O)C(=Cc2ccc(Sc3ccccc3)o2)C(=O)N(C)C1=O returned ALDH1A1 block inconclusive, JMJD2E inh 0%, Sfp inh 6%, miR-21 reporter 0%, Lamin A splicing 17%[46 µM] and G9a block 8.9µM*.
O=C1NC(=O)C(=Cc2ccc(Sc3ccccc3)o2)C(=O)N1 was read as JMJD2E inh inconclusive, Sfp inh 25µM*, miR-21 reporter 11% and G9a block -23%[12.7 µM].
Screening O=C(O)Cn1cc(C=C2C(=O)NC(=O)NC2=O)c2ccccc21 returned Sfp inh 4%, miR-21 reporter 0% and G9a block 19%[2.33 µM].
Screening CC[C@H](C)[C@H](NC(=O)[C@@H](N)Cc1ccc(O)cc1)C(=O)NCC(=O)N[C@@H](CO)C(=O)N[C@@H](CCCN=C(N)N)C(N)=O returned Sfp inh -3%.
For N=C(N)c1ccc(CS(=O)(=O)F)cc1 the results were G9a block -85%[59 µM].
`CC1CCc2cc(F)cc3c(=O)c(C(=O)O)cn1c23` (stereo unspecified) gave ALDH1A1 block -6%, JMJD2E inh 333%, Sfp inh -8%, miR-21 reporter -10%, Lamin A splicing -9% and G9a block 8.9µM*.
